Measured values: PubChem BioAssay AID2764 (Sanford-Burnham Center for Chemical Genomics, 2010)
Only a part is listed here, and it is no random draw. Activity calls are given as the source filed them.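 How the source made its calls: active means activation above 40%, taking the highest of four retests; inactive means the rest.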

Chains of the proteins cited; added tags and fusions are not shown.
UniProt P35414, whole entry: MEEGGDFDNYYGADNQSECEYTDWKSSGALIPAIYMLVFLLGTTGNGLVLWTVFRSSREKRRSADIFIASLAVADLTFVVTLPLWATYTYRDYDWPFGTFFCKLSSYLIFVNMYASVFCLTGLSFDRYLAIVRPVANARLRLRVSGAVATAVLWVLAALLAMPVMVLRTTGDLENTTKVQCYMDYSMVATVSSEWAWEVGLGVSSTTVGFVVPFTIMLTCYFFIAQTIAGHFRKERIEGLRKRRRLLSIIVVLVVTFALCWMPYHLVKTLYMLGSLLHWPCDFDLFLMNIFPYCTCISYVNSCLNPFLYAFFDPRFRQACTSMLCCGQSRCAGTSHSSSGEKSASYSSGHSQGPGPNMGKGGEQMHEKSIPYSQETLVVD

Molecular target: Apelin receptor (Homo sapiens) (UniProt P35414)
Assay: agonists of human apelin receptor APJ, confirmation, cell-based, single concentration, CHO-K1, beta-arrestin, luminescence (AID 2764);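 further: plate controls were DMSO wells for no effect and apelin-13 at 10 nM for full effect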
Conditions: CHO-K1 APJ PathHunter beta-arrestin, at 20 µM, hits give high values
Summary of the method: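 doses = single dose, compounds 20 µM final, 1% DMSO | assay system = CHO-K1 AGTRL-1 (APJ) PathHunter cells, ProLink-APJ, EA-beta-arrestin fusions | signal = luminescence, enzyme-fragment complementation | timing = overnight cell seeding, 90 min compound exposure at 25 °C, 60 min detection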

**Q.** `O=[N+]([O-])c1cc([N+](=O)[O-])c(-c2cnn(-c3ccccc3)c2)c([N+](=O)[O-])c1` was tested. Which activation did it give?
**A.** inactive: 31.6%
